1 compound from US9242941B2, “Alkyl, fluoroalkyl-1,4-benzodiazepinone compounds” (BRISTOL-MYERS SQUIBB COMPANY, priority 2012, dated 2016) can be followed below.

The data set is described as follows: human metabolic stability half-life assay. To be noted: microsomes, pH 7.4.

In general, half-life refers to how long it takes for the measured level to halve. Higher therefore signals slow decline. For the compound `CCC[C@H](C(N)=O)[C@@H](CC(C)C)C(=O)N[C@H]1N=C(c2ccccc2)c2ccccc2N(C)C1=O` [Comparative Compound 56, reference compound], the half-life at 0.5 µM is at most 9 min.
